By IC50 is commonly meant the point on the concentration scale where inhibition reaches its midpoint. A high value points to a need for much substance.

The source of these data is patent US20210395313A1, “PEPTIDE PAC1 ANTAGONISTS” (AMGEN INC., priority 2017, published 2021).

Assay [1] addresses T1, rat PAC1 receptor (Rattus norvegicus, UniProt P32215).
T1 construct: SHSY-5Y (human neuroblastoma cell line) and RG-2 (rat glioma cell line) cells endogenously express human and rat PAC1 receptors, respectively; endogenous in cells; host or cells: RG-2 rat glioma cells
T1 sequence (P32215 20-523): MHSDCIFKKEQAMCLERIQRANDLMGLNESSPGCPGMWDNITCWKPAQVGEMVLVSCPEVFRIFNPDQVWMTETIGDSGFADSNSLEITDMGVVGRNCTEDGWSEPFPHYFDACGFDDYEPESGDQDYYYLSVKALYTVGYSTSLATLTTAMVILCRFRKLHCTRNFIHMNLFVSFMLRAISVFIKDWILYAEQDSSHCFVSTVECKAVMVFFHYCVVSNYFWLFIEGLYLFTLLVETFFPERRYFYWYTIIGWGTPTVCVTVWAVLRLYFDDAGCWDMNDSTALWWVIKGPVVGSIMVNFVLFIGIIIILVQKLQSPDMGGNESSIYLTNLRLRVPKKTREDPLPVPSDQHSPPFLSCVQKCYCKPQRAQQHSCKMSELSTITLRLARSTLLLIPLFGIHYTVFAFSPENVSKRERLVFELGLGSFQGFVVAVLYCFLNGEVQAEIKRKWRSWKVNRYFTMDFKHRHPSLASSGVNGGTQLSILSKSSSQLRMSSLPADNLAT
The experiment in a line: LANCE Ultra cAMP accumulation antagonist assay in RG-2 cells.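 Note: RG-2 rat glioma cells endogenously expressing PAC1, test peptide preincubated 30 min, then PAC1 agonist added at its EC80 for 15 min, cAMP accumulation read by LANCE Ultra.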 In kind it is cell-based. For orientation: In TR-FRET formats the signal depends on donor and acceptor labels being close together.

Assay [2] has as its target T2, human PAC1 receptor (Homo sapiens, UniProt P41586).
T2 construct: SHSY-5Y (human neuroblastoma cell line) and RG-2 (rat glioma cell line) cells endogenously express human and rat PAC1 receptors, respectively; endogenous in cells; host or cells: SHSY-5Y human neuroblastoma cells
T2 sequence (P41586 21-468): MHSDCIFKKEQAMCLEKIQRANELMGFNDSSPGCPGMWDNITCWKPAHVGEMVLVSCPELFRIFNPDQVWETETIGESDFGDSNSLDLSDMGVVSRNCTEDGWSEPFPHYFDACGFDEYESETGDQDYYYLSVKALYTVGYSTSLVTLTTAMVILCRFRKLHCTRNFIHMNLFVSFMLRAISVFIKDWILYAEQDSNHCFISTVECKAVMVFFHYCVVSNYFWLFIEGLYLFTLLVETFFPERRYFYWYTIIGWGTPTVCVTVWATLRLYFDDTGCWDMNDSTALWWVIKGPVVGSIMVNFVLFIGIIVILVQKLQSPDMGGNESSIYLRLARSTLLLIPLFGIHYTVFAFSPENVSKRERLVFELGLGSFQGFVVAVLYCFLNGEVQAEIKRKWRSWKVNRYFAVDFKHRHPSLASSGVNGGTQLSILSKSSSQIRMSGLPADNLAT
The experiment in a line: LANCE Ultra cAMP accumulation antagonist assay in SHSY-5Y cells.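 Note: inhibition of cAMP accumulation evoked by PAC1 agonist at its EC80 in SHSY-5Y cells endogenously expressing receptor, 30 min preincubation then 15 min agonist, TR-FRET readout.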 In kind it is cell-based.

On to `CC[C@H](C)[C@H](NC(=O)[C@H](C)NC(=O)[C@H](CCCCN)NC(=O)[C@H](CCCNC(=N)N)NC(=O)[C@H](Cc1ccccc1)NC(=O)[C@H](CCC(N)=O)NC(=O)[C@@H]1CSSC[C@H](N)C(=O)N[C@@H](CC(=O)O)C(=O)N[C@@H](C)C(=O)N[C@@H]([C@@H](C)O)C(=O)N1)C(=O)N[C@@H](CC(=O)O)C(=O)N[C@@H](CC(=O)O)C(=O)N[C@H]1CSSC[C@@H](C(=O)N[C@@H](CCSC)C(=O)N[C@@H](CCCCN)C(=O)N[C@@H](CCC(N)=O)C(=O)N[C@@H](CCCCN)C(=O)N[C@@H](CCCCN)C(=O)N[C@@H](CCCCN)C(=O)N[C@@H](CCC(=O)O)C(=O)N[C@@H](Cc2ccccc2)C(=O)N[C@@H](CCCCN)C(N)=O)NC(=O)[C@H](CCC(=O)O)NC(=O)[C@H](CCCCN)NC(=O)[C@H](Cc2ccccc2)NC(=O)[C@H](C(C)C)NC(=O)[C@H](CO)NC(=O)[C@H](CC(N)=O)NC(=O)CNC(=O)[C@@H]2CCCN2C(=O)[C@H](C(C)C)NC(=O)[C@H](CC(N)=O)NC(=O)[C@H](CO)NC(=O)[C@H](Cc2c[nH]cn2)NC(=O)[C@H](Cc2c[nH]cn2)NC(=O)[C@H](C)NC(=O)C(C)(C)NC(=O)[C@H](CCCCN)NC(=O)[C@H](CCC(N)=O)NC1=O` [compound 286], for which the IC50 in assay [1] and in assay [2] was 1 to 100 nM in each case.
As for `CC[C@H](C)[C@H](NC(=O)[C@H](C)NC(=O)[C@H](CCCCN)NC(=O)[C@H](CCCNC(=N)N)NC(=O)[C@H](Cc1ccccc1)NC(=O)[C@H](CCC(N)=O)NC(=O)[C@@H]1CSSC[C@H](N)C(=O)N[C@@H](CC(=O)O)C(=O)N[C@@H](C)C(=O)N[C@@H]([C@@H](C)O)C(=O)N1)C(=O)N[C@@H](CC(=O)O)C(=O)N[C@@H](CC(=O)O)C(=O)N[C@H]1CSSC[C@@H](C(=O)N[C@@H](CCSC)C(=O)N[C@@H](CCCCN)C(=O)N[C@@H](CCC(N)=O)C(=O)N[C@@H](CCCCN)C(=O)N[C@@H](CCCCN)C(=O)N[C@@H](CCCCN)C(=O)N[C@@H](CCC(=O)O)C(=O)N[C@@H](Cc2ccccc2)C(=O)N[C@@H](CCCCN)C(=O)N[C@@H](C)C(=O)N[C@@H](CC(N)=O)C(N)=O)NC(=O)C(C)(C)NC(=O)[C@H](CCCCN)NC(=O)[C@H](Cc2ccccc2)NC(=O)[C@H](C(C)C)NC(=O)[C@H](CO)NC(=O)CNC(=O)[C@@H]2CCCN2C(=O)[C@H](C(C)C)NC(=O)[C@H](CC(N)=O)NC(=O)[C@H](CO)NC(=O)[C@H](Cc2c[nH]cn2)NC(=O)[C@H](Cc2c[nH]cn2)NC(=O)[C@H](C)NC(=O)[C@H](CCC(N)=O)NC(=O)[C@H](CCCCN)NC(=O)[C@H](CCC(N)=O)NC1=O` [compound 228], the 50% inhibitory concentration (IC50) in assay [1] and in assay [2] was 0.01 to 1 nM each time.
For the molecule `CCCC[C@H](NC(=O)[C@@H]1CSSC[C@H](NC(=O)[C@H](CC(=O)O)NC(=O)[C@H](CC(=O)O)NC(=O)[C@@H](NC(=O)[C@H](C)NC(=O)[C@H](CCCCN)NC(=O)[C@H](CCCNC(=N)N)NC(=O)[C@H](Cc2ccccc2)NC(=O)[C@H](CCC(N)=O)NC(=O)[C@@H]2CSSC[C@H](N)C(=O)N[C@@H](CC(=O)O)C(=O)N[C@@H](C)C(=O)N[C@@H]([C@@H](C)O)C(=O)N2)[C@@H](C)CC)C(=O)N[C@@H](CCC(N)=O)C(=O)N[C@@H](CCCCN)C(=O)N[C@@H](CCC(N)=O)C(=O)N[C@@H](C)C(=O)N[C@@H](Cc2c[nH]cn2)C(=O)N[C@@H](Cc2c[nH]cn2)C(=O)N[C@@H](CO)C(=O)N[C@@H](CO)C(=O)N[C@@H](Cc2ccccc2)C(=O)N[C@@H](CCCCN)C(=O)NC(C)(C)C(=O)N1)C(=O)N[C@@H](CCCCN)C(=O)N[C@@H](CCC(N)=O)C(=O)N[C@@H](CCCCN)C(=O)N[C@@H](CCCCN)C(=O)N[C@@H](CCCCN)C(=O)N[C@@H](CCC(=O)O)C(=O)N[C@@H](Cc1ccccc1)C(=O)N[C@@H](CCCCN)C(N)=O` [compound 217], the IC50 in assay [1] and in assay [2] was 1 to 100 nM each time.
